Data on one compound can be found in patent US20070191335A1, “Heterocylic antiviral compounds” (priority 2006, published 2007).

Chains of the proteins cited; added tags and fusions are not shown.
UniProt P51681, whole entry: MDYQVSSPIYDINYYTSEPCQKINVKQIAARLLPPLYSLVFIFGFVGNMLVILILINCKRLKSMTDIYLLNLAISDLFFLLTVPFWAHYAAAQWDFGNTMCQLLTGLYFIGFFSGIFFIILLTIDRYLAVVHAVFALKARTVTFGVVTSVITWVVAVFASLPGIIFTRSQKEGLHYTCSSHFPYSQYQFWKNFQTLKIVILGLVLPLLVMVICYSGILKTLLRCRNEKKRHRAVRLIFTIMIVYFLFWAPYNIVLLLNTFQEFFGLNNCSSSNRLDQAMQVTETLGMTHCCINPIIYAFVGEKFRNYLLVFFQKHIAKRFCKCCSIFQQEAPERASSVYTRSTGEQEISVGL

For this test, the target named is CCR5 (Homo sapiens, UniProt P51681). Put plainly: CCR5-Mediated CCF Assay. As to conditions: Hela-R5 cells (gp160) co-cultured 24 hrs with CEM-NKr-CCR5-Luc cells, luciferase readout. How it is done:
CCF assay was performed as described before (C. Ji, J. Zhang, N. Cammack and S. Sankuratri 2006 J. Biomol. Screen. in press). Hela-R5 cells (express gp160 from R5-tropic virus and HIV-1 T at) were plated in 384 well white culture plates (BD Bioscience, Palo Alto, Calif.) at 7.5×10^3 cells per well in phenol red-free Dulbecco's Modified Eagle Medium (DMEM) supplemented with 10% FBS, 1× Pen-Strep, 300 μg/ml G418, 100 μg/ml hygromycin, and 1 μg/ml doxycycline (Dox) (BD Bioscience, Palo Alto, Calif.), using Multimek (Beckman, Fullerton, Calif.) and incubated at 37° C. overnight to induce the expression of gp160. Ten μl diluted compounds in medium containing 5% DMSO were added to the cells, followed by the addition of CEM-NKr-CCR5-Luc (obtained from NIH AIDS Research & Reference Reagents Program) that expresses CD4 and CCR5 and carries a HIV-2 long terminal repeat (LTR)-driven luciferase reporter gene at 1.5×10^4 cells/15 μl/well and incubated for 24 hrs. At the end of co-culture, 15 μl of Steady-Glo luciferase substrate was added into each well, and the cultures were sealed and gently shaken for 45 min. The luciferase activity were measured for 10 sec per well as luminescence by using 16-channel TopCount NXT (PerkinElmer, Shelton, Conn.) with 10 min dark adaptation and the readout is count per second (CPS). […]

Regarding `CCOC(=O)CN(C)c1nc(C)c(C(=O)N2C[C@H]3CN(CCCN(C(=O)C4CCC(F)(F)CC4)c4ccc(C)c(Cl)c4)C[C@H]3C2)c(C)n1` (relative stereo), the IC50 (as a rule, the concentration that gives 50% inhibition) was 0.4 nM.
